Literature values, collected in US5872104A, “Combinations and methods for reducing antimicrobial resistance” (Oridigm Corporation, priority 1994, dated 1999).

Test system: Streptococcus agalactactiae (group B)
Settings: in µg/mL; cited from earlier work

CC[C@H]1OC(=O)[C@H](C)[C@@H](O[C@H]2C[C@@](C)(OC)[C@@H](O)[C@H](C)O2)[C@H](C)[C@@H](O[C@@H]2O[C@H](C)C[C@H](N(C)C)[C@H]2O)[C@](C)(O)C[C@@H](C)CN(C)[C@H](C)[C@@H](O)[C@]1(C)O [Azithromycin]
MIC90: 0.5
